# Reference: patent publication EP4834897A1, “COMPOUNDS WITH TWO AZAHETEROCYCLES SUBSTITUTED ISOINDOLINONE SKELETON AND USES THEREOF” (dated 2026)
# Amino acid sequences for entries named in this document (tags omitted).
# UniProt Q13422, whole entry: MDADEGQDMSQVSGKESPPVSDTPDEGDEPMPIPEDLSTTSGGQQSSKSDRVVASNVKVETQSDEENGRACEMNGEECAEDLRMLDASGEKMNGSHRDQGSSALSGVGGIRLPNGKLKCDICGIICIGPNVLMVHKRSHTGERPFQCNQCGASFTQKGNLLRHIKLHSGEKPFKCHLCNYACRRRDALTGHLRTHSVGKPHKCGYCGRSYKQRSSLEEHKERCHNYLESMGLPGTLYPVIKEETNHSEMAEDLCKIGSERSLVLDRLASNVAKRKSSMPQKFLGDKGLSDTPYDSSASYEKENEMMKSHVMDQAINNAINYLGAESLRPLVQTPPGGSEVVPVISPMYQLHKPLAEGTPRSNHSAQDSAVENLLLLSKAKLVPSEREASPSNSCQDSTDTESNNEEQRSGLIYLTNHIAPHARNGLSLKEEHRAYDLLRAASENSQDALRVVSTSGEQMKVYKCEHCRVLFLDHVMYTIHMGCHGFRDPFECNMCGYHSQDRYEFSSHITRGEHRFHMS
# UniProt Q96SW2, whole entry: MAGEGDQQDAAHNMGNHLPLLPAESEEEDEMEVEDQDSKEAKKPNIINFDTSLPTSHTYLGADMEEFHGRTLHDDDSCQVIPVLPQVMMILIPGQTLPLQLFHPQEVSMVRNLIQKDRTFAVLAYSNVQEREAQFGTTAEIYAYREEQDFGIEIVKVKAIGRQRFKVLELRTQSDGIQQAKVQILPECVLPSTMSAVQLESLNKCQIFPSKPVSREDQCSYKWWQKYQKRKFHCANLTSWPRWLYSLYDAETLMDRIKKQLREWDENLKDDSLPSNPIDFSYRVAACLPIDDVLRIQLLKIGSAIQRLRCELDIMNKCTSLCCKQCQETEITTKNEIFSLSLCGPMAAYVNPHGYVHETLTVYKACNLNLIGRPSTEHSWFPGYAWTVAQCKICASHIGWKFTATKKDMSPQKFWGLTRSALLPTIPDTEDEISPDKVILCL
# UniProt P15170, whole entry: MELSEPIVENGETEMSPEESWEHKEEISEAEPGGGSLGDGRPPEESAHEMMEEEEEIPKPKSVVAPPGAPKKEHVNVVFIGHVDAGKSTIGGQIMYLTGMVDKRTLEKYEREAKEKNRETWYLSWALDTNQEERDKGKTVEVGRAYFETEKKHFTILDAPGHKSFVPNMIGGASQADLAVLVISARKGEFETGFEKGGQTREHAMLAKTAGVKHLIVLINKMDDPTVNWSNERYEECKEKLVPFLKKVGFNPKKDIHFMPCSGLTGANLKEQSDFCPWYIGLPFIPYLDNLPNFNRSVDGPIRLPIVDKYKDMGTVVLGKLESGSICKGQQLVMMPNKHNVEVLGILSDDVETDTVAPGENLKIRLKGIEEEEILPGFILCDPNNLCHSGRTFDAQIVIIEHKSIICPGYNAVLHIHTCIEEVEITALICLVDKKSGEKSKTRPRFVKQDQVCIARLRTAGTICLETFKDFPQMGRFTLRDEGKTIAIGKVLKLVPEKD
# UniProt P48729, whole entry: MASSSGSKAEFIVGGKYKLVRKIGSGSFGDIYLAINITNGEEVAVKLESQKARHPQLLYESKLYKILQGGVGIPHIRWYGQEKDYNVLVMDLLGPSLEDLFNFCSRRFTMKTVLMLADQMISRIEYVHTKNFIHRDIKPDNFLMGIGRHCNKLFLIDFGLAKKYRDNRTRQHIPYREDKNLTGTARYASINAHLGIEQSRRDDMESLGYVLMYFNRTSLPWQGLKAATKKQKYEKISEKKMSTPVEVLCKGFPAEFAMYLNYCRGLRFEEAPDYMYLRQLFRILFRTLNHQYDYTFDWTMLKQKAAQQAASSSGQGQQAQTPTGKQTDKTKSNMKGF
# UniProt P30291, whole entry: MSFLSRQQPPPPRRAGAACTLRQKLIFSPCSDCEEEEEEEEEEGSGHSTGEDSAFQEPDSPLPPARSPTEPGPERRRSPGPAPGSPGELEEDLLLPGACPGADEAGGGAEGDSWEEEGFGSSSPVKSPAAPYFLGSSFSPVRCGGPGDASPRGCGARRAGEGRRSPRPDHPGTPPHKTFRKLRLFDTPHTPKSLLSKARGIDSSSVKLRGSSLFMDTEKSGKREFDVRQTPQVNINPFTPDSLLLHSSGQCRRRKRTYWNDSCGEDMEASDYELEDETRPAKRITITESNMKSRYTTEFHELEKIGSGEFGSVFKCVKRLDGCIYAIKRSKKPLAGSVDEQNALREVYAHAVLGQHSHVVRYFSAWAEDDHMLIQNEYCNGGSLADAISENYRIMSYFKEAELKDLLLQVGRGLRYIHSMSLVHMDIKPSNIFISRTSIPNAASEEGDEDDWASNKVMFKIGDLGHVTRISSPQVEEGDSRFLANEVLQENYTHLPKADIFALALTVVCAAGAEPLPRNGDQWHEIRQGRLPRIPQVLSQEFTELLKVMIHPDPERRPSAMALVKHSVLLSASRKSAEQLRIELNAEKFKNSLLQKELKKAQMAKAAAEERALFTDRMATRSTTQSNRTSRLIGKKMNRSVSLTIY
# UniProt Q9UKT9, whole entry: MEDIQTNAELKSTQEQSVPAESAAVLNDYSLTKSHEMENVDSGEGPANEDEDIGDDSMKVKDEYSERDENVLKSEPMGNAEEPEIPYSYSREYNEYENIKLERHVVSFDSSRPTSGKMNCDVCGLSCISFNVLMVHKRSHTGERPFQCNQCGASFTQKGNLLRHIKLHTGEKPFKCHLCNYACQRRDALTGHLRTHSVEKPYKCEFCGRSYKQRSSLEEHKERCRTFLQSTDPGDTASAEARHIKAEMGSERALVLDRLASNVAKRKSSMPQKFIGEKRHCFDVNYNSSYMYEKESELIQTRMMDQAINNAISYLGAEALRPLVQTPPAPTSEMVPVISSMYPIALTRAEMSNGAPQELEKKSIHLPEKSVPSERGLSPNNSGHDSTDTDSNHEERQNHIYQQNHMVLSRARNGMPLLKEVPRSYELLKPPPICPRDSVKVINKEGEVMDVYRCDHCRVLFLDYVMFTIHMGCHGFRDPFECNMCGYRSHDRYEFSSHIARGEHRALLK
# UniProt Q9UKS7, whole entry: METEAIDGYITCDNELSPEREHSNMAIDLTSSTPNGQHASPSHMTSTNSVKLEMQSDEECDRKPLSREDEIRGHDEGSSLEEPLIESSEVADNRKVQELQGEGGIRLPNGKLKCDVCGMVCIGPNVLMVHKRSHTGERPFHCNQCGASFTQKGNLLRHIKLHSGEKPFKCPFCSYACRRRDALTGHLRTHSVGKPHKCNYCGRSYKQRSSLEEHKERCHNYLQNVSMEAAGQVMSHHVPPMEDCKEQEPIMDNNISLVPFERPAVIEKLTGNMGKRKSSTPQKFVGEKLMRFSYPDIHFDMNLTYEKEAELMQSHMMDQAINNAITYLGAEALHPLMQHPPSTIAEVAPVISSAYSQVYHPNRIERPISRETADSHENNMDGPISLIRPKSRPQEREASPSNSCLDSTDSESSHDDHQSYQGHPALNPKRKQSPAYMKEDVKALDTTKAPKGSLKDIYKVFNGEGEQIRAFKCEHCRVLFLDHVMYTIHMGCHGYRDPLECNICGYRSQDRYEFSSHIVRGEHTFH
# UniProt Q16531, whole entry partner: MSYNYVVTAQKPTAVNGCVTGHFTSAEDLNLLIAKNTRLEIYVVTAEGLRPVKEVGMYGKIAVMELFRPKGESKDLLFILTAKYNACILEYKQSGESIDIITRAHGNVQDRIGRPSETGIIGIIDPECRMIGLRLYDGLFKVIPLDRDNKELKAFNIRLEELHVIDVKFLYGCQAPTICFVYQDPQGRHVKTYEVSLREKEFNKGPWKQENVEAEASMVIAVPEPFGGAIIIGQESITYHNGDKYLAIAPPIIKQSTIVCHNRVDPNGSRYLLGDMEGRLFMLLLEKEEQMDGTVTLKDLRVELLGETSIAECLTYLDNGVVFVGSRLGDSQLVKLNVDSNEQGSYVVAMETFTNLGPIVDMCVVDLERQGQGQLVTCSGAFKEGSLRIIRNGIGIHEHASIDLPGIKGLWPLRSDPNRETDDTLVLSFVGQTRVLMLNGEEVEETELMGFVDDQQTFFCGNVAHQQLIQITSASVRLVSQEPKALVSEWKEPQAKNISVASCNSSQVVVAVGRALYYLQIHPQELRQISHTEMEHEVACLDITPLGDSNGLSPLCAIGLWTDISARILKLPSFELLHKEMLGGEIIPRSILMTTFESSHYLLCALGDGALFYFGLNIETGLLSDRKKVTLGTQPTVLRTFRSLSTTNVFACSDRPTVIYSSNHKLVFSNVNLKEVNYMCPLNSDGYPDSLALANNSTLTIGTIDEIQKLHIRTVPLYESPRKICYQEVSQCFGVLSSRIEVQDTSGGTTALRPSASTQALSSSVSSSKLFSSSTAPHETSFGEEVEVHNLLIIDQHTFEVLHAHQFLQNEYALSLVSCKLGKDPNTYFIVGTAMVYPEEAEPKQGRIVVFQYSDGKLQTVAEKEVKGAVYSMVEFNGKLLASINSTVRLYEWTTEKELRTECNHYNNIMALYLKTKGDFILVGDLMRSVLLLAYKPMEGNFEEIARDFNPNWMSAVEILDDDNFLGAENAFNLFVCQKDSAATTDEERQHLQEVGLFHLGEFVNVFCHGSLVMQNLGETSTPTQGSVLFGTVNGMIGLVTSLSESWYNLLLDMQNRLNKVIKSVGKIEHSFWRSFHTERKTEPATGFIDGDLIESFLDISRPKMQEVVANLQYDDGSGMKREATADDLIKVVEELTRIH
# Biological target: IKZF1 (Homo sapiens, UniProt Q13422+Q96SW2)
# Assay: Western blot assay of substrate protein degradation in hPBMCs
# Conditions: 24 hours treatment, compounds at 50 nM and 500 nM (concentration behind the class not stated)
row,Compound,substrate protein remaining % (IKZF 1)
1,O=C1CCC(N2Cc3c(CN4CCC(N5CC=C(c6cccc(Cl)c6Cl)CC5)C(F)(F)C4)cccc3C2=O)C(=O)N1 (stereo not drawn),A (0% ≤ substrate protein remaining % ≤ 80%)
2,O=C1CCC(N2Cc3c(C(=O)N4CCC(N5CCN(c6noc7cc(F)ccc67)CC5)CC4)cccc3C2=O)C(=O)N1 (stereo not drawn),B (80%< substrate protein remaining %≤ 100%)

# Biological target: GSPT1 (Homo sapiens, UniProt P15170+Q96SW2)
# Assay: as above
# Conditions: 24 hours treatment, compounds at 50 nM and 500 nM (concentration behind the class not stated)
row,Compound,substrate protein remaining % (GSPT1)
1,O=C1CCC(N2Cc3c(CN4CCC(N5CC=C(c6cccc(Cl)c6Cl)CC5)C(F)(F)C4)cccc3C2=O)C(=O)N1 (stereo not drawn),A (0% ≤ substrate protein remaining % ≤ 80%)
2,O=C1CCC(N2Cc3c(C(=O)N4CCC(N5CCN(c6noc7cc(F)ccc67)CC5)CC4)cccc3C2=O)C(=O)N1 (stereo not drawn),A (0% ≤ substrate protein remaining % ≤ 80%)

# Biological target: CK1α (Homo sapiens, UniProt P48729+Q96SW2)
# Assay: as above
# Conditions: 24 hours treatment, compounds at 50 nM and 500 nM (concentration behind the class not stated)
row,Compound,substrate protein remaining % (CK1a)
1,O=C1CCC(N2Cc3c(CN4CCC(N5CC=C(c6cccc(Cl)c6Cl)CC5)C(F)(F)C4)cccc3C2=O)C(=O)N1 (stereo not drawn),A (0% ≤ substrate protein remaining % ≤ 80%)
2,O=C1CCC(N2Cc3c(C(=O)N4CCC(N5CCN(c6noc7cc(F)ccc67)CC5)CC4)cccc3C2=O)C(=O)N1 (stereo not drawn),A (0% ≤ substrate protein remaining % ≤ 80%)

# Biological target: WEE1 (Homo sapiens, UniProt P30291+Q96SW2)
# Assay: as above
# Conditions: 24 hours treatment, compounds at 50 nM and 500 nM (concentration behind the class not stated)
row,Compound,substrate protein remaining % (WEE1)
1,O=C1CCC(N2Cc3c(CN4CCC(N5CC=C(c6cccc(Cl)c6Cl)CC5)C(F)(F)C4)cccc3C2=O)C(=O)N1 (stereo not drawn),A (0% ≤ substrate protein remaining % ≤ 80%)
2,O=C1CCC(N2Cc3c(C(=O)N4CCC(N5CCN(c6noc7cc(F)ccc67)CC5)CC4)cccc3C2=O)C(=O)N1 (stereo not drawn),A (0% ≤ substrate protein remaining % ≤ 80%)

# Biological target: IKZF3 (Homo sapiens, UniProt Q96SW2+Q9UKT9)
# Assay: as above
# Conditions: 24 hours treatment, compounds at 50 nM and 500 nM (concentration behind the class not stated)
row,Compound,substrate protein remaining % (IKZF3)
1,O=C1CCC(N2Cc3c(CN4CCC(N5CC=C(c6cccc(Cl)c6Cl)CC5)C(F)(F)C4)cccc3C2=O)C(=O)N1 (stereo not drawn),A (0% ≤ substrate protein remaining % ≤ 80%)
2,O=C1CCC(N2Cc3c(C(=O)N4CCC(N5CCN(c6noc7cc(F)ccc67)CC5)CC4)cccc3C2=O)C(=O)N1 (stereo not drawn),B (80%< substrate protein remaining %≤ 100%)

# Biological target: IKZF2 (Homo sapiens, UniProt Q96SW2+Q9UKS7)
# Assay: as above
# Conditions: 24 hours treatment, compounds at 50 nM and 500 nM (concentration behind the class not stated)
row,Compound,substrate protein remaining % (IKZF2)
1,O=C1CCC(N2Cc3c(CN4CCC(N5CC=C(c6cccc(Cl)c6Cl)CC5)C(F)(F)C4)cccc3C2=O)C(=O)N1 (stereo not drawn),A (0% ≤ substrate protein remaining % ≤ 80%)
2,O=C1CCC(N2Cc3c(C(=O)N4CCC(N5CCN(c6noc7cc(F)ccc67)CC5)CC4)cccc3C2=O)C(=O)N1 (stereo not drawn),B (80%< substrate protein remaining %≤ 100%)

# Test system: IL-2
# Assay: Inflammatory cytokine release from PBMCs induced by PHA (flow cytometry CBA)
# Conditions: 0.1 µM; PBMCs, PHA 1 µg/mL, 24 h
row,Compound,Inhibition Rate (%) IL-2
1,O=C1CCC(N2C(=O)c3ccc(CN4CCC(N5CCN(c6noc7cc(F)ccc67)CC5)CC4)cc3C2=O)C(=O)N1 (stereo not drawn),IV9 (40% < IV9 ≤ 50%)

# Same assay, conditions: 1 µM; PBMCs, PHA 1 µg/mL, 24 h
row,Compound,Inhibition Rate (%) IL-2
1,O=C1CCC(N2C(=O)c3ccc(CN4CCC(N5CCN(c6noc7cc(F)ccc67)CC5)CC4)cc3C2=O)C(=O)N1 (stereo not drawn),IV8 (30% < IV8 ≤ 40%)

# Biological target: CRBN (Homo sapiens, UniProt Q96SW2)
# Assay: CRBN binding affinity by HTRF (CEREBLON BINDING kit)
# Conditions: CRBN binding, HTRF, compound at 0.5 µM
row,Compound,Inhibition Rate at 0.5 µM (%)
1,O=C1CCC(N2Cc3c(C(=O)N4CCC(N5CCN(c6noc7cc(F)ccc67)CC5)CC4)cccc3C2=O)C(=O)N1 (stereo not drawn),a3 (30% < a3 ≤ 40%)

# Same assay, conditions: CRBN binding, HTRF, compound at 2 µM
row,Compound,Inhibition Rate at 2 µM (%)
1,O=C1CCC(N2Cc3c(C(=O)N4CCC(N5CCN(c6noc7cc(F)ccc67)CC5)CC4)cccc3C2=O)C(=O)N1 (stereo not drawn),a6 (60% < a6 ≤ 70%)

# Test system: Human multiple myeloma cell (MM.1S)
# Assay: Tumor cell proliferation inhibition (cell viability assay)
# Conditions: MM.1S cells; 10 nM; 96 hours
row,Compound,Inhibition Rate at 10 nM (%)
1,O=C1CCC(N2Cc3c(CN4CCC(N5CC=C(c6cccc(Cl)c6Cl)CC5)C(F)(F)C4)cccc3C2=O)C(=O)N1 (stereo not drawn),1b7 (50% ≤ 1b7 < 60%)

# Same assay, conditions: MM.1S cells; 500 nM; 96 hours
row,Compound,Inhibition Rate at 500 nM (%)
1,O=C1CCC(N2Cc3c(CN4CCC(N5CC=C(c6cccc(Cl)c6Cl)CC5)C(F)(F)C4)cccc3C2=O)C(=O)N1 (stereo not drawn),1b10 (80% ≤ 1b10 ≤ 100%)

# Test system: Human acute T lymphocytic leukemia cell (Molt4)
# Assay: as above
# Conditions: Molt4 cells; 10 nM; 96 hours
row,Compound,Inhibition Rate at 10 nM (%)
1,O=C1CCC(N2Cc3c(CN4CCC(N5CC=C(c6cccc(Cl)c6Cl)CC5)C(F)(F)C4)cccc3C2=O)C(=O)N1 (stereo not drawn),1c4 (10% ≤ 1c4 < 20%)
2,Nc1cccc2c1C(=O)N(C1CCC(=O)NC1=O)C2=O (stereo not drawn),1c1 (-7% < 1c1 < 0)
3,O=C1CCC(N2Cc3c(C(=O)N4CCC(N5CCN(c6noc7cc(F)ccc67)CC5)CC4)cccc3C2=O)C(=O)N1 (stereo not drawn),1c6 (30% ≤ 1c6 < 40%)

# Same assay, conditions: Molt4 cells; 500 nM; 96 hours
row,Compound,Inhibition Rate at 500 nM (%)
1,O=C1CCC(N2Cc3c(CN4CCC(N5CC=C(c6cccc(Cl)c6Cl)CC5)C(F)(F)C4)cccc3C2=O)C(=O)N1 (stereo not drawn),1c11 (80% ≤ 1c11 ≤ 100%)
2,Nc1cccc2c1C(=O)N(C1CCC(=O)NC1=O)C2=O (stereo not drawn),1c1 (-7% < 1c1 < 0)
3,O=C1CCC(N2Cc3c(C(=O)N4CCC(N5CCN(c6noc7cc(F)ccc67)CC5)CC4)cccc3C2=O)C(=O)N1 (stereo not drawn),1c7 (40% ≤ 1c7 < 50%)

# Test system: Human mantle cell lymphoma cell line (JEKO-1)
# Assay: as above
# Conditions: JEKO-1 cells; 10 nM; 96 hours
row,Compound,Inhibition Rate at 10 nM (%)
1,O=C1CCC(N2Cc3c(CN4CCC(N5CC=C(c6cccc(Cl)c6Cl)CC5)C(F)(F)C4)cccc3C2=O)C(=O)N1 (stereo not drawn),1g4 (20% ≤ 1g4 < 30%)
2,Nc1cccc2c1C(=O)N(C1CCC(=O)NC1=O)C2=O (stereo not drawn),1g2 (5% ≤ 1g2 < 10%)

# Same assay, conditions: JEKO-1 cells; 500 nM; 96 hours
row,Compound,Inhibition Rate at 500 nM (%)
1,O=C1CCC(N2Cc3c(CN4CCC(N5CC=C(c6cccc(Cl)c6Cl)CC5)C(F)(F)C4)cccc3C2=O)C(=O)N1 (stereo not drawn),1g10 (80% ≤ 1g10 ≤ 100%)
2,Nc1cccc2c1C(=O)N(C1CCC(=O)NC1=O)C2=O (stereo not drawn),1g4 (20% ≤ 1g4 < 30%)

# Test system: Human diffuse large B-cell lymphoma cell (TMD8)
# Assay: as above
# Conditions: TMD8 cells; 10 nM; 96 hours
row,Compound,Inhibition Rate at 10 nM (%)
1,O=C1CCC(N2C(=O)c3ccc(CN4CCC(N5CCN(c6noc7cc(F)ccc67)CC5)CC4)cc3C2=O)C(=O)N1 (stereo not drawn),1f9 (70% ≤ 1f9 < 80%)
2,Nc1cccc2c1C(=O)N(C1CCC(=O)NC1=O)C2=O (stereo not drawn),1f2 (5% ≤ 1f2 < 10%)
3,O=C1CCC(N2Cc3c(C(=O)N4CCC(N5CCN(c6noc7cc(F)ccc67)CC5)CC4)cccc3C2=O)C(=O)N1 (stereo not drawn),1f6 (40% ≤ 1f6 < 50%)

# Same assay, conditions: TMD8 cells; 500 nM; 96 hours
row,Compound,Inhibition Rate at 500 nM (%)
1,O=C1CCC(N2C(=O)c3ccc(CN4CCC(N5CCN(c6noc7cc(F)ccc67)CC5)CC4)cc3C2=O)C(=O)N1 (stereo not drawn),1f10 (80% ≤ 1f10 ≤ 100%)
2,Nc1cccc2c1C(=O)N(C1CCC(=O)NC1=O)C2=O (stereo not drawn),1f4 (20% ≤ 1f4 < 30%)
3,O=C1CCC(N2Cc3c(C(=O)N4CCC(N5CCN(c6noc7cc(F)ccc67)CC5)CC4)cccc3C2=O)C(=O)N1 (stereo not drawn),1f8 (60% ≤ 1f8 < 70%)

# Test system: Human colon cancer cell (SW620)
# Assay: as above
# Conditions: SW620 cells; 10 nM; 96 hours
row,Compound,Inhibition Rate at 10 nM (%)
1,O=C1CCC(N2Cc3c(CN4CCC(N5CC=C(c6cccc(Cl)c6Cl)CC5)C(F)(F)C4)cccc3C2=O)C(=O)N1 (stereo not drawn),1d4 (20% ≤ 1d4 < 30%)
2,Nc1cccc2c1C(=O)N(C1CCC(=O)NC1=O)C2=O (stereo not drawn),1d1 (0 < 1d1 < 5%)

# Same assay, conditions: SW620 cells; 500 nM; 96 hours
row,Compound,Inhibition Rate at 500 nM (%)
1,O=C1CCC(N2Cc3c(CN4CCC(N5CC=C(c6cccc(Cl)c6Cl)CC5)C(F)(F)C4)cccc3C2=O)C(=O)N1 (stereo not drawn),1d10 (80% ≤ 1d10 ≤ 100%)
2,Nc1cccc2c1C(=O)N(C1CCC(=O)NC1=O)C2=O (stereo not drawn),1d1 (0 < 1d1 < 5%)

# Test system: Human breast cancer cell (MCF-7)
# Assay: as above
# Conditions: MCF-7 cells; 10 nM; 96 hours
row,Compound,Inhibition Rate at 10 nM (%)
1,O=C1CCC(N2Cc3c(CN4CCC(N5CC=C(c6cccc(Cl)c6Cl)CC5)C(F)(F)C4)cccc3C2=O)C(=O)N1 (stereo not drawn),1e5 (20% ≤ 1e5 < 30%)
2,Nc1cccc2c1C(=O)N(C1CCC(=O)NC1=O)C2=O (stereo not drawn),1e1 (-10% < 1e1 < 0)

# Same assay, conditions: MCF-7 cells; 500 nM; 96 hours
row,Compound,Inhibition Rate at 500 nM (%)
1,O=C1CCC(N2Cc3c(CN4CCC(N5CC=C(c6cccc(Cl)c6Cl)CC5)C(F)(F)C4)cccc3C2=O)C(=O)N1 (stereo not drawn),1e10 (70% ≤ 1e10 < 80%)
2,Nc1cccc2c1C(=O)N(C1CCC(=O)NC1=O)C2=O (stereo not drawn),1e1 (-10% < 1e1 < 0)

# Test system: Human myeloid monocytic leukemia cell (MV-4-11)
# Assay: as above
# Conditions: MV-4-11 cells; 10 nM; 96 hours
row,Compound,Inhibition Rate at 10 nM (%)
1,O=C1CCC(N2Cc3c(CN4CCC(N5CC=C(c6cccc(Cl)c6Cl)CC5)C(F)(F)C4)cccc3C2=O)C(=O)N1 (stereo not drawn),1a7 (50% ≤ 1a7 < 60%)
2,Nc1cccc2c1C(=O)N(C1CCC(=O)NC1=O)C2=O (stereo not drawn),1a3 (10% ≤ 1a3 < 20%)
3,O=C1CCC(N2Cc3c(C(=O)N4CCC(N5CCN(c6noc7cc(F)ccc67)CC5)CC4)cccc3C2=O)C(=O)N1 (stereo not drawn),1a5 (30% ≤ 1a5 ≤ 40%)

# Same assay, conditions: MV-4-11 cells; 500 nM; 96 hours
row,Compound,Inhibition Rate at 500 nM (%)
1,O=C1CCC(N2Cc3c(CN4CCC(N5CC=C(c6cccc(Cl)c6Cl)CC5)C(F)(F)C4)cccc3C2=O)C(=O)N1 (stereo not drawn),1a11 (100% ≤ 1a11 ≤ 105%)
2,Nc1cccc2c1C(=O)N(C1CCC(=O)NC1=O)C2=O (stereo not drawn),1a5 (30% ≤ 1a5 ≤ 40%)
3,O=C1CCC(N2Cc3c(C(=O)N4CCC(N5CCN(c6noc7cc(F)ccc67)CC5)CC4)cccc3C2=O)C(=O)N1 (stereo not drawn),1a10 (80% ≤ 1a10 < 100%)
